The values below are quoted from earlier work in patent US9597417B2, “Compositions and methods to evaluate hepatobiliary/gastrointestinal health, enterohepatic circulation, and drug interactions” (The United States of America as represented by the …, priority 2013, dated 2017).

Protein sequences, listed by entry. Tags and fused reporters are not part of them.
UniProt Q14973, whole entry: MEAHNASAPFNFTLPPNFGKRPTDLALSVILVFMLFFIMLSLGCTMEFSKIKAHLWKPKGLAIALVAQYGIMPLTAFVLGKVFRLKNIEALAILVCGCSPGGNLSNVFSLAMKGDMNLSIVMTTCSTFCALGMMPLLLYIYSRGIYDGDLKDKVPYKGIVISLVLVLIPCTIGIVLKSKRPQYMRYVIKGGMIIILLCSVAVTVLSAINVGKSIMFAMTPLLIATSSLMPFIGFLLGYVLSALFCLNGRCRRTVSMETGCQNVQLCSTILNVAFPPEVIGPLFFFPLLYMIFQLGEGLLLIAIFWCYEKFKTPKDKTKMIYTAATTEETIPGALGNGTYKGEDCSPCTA
UniProt Q12908, whole entry: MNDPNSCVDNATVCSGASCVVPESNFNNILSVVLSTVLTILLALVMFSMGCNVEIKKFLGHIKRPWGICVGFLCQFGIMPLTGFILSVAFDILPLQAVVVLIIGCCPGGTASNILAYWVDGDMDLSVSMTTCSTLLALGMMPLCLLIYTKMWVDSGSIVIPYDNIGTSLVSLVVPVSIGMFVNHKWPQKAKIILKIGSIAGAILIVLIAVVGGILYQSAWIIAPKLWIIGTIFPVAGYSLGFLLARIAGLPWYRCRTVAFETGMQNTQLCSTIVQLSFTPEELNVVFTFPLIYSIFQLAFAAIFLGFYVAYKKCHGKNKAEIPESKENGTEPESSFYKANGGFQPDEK

Series [1] has as its target human Na+/taurocholate cotransporting polypeptide (hNTCP) (Homo sapiens, UniProt Q14973). The settings on record: read-out: NTCP Km; literature / historic data, same cell line; cited from earlier work.
The target of series [2] is human apical sodium dependent bile acid transporter (hASBT) (Homo sapiens, UniProt Q12908). Conditions: read-out: ASBT Km; literature / historic data, same cell line; cited from earlier work.

With `C[C@H](CCC(=O)N[C@@H](CCCCNC(=O)C(F)(F)F)C(=O)O)[C@H]1CC[C@H]2[C@@H]3[C@H](O)C[C@@H]4C[C@H](O)CC[C@]4(C)[C@H]3C[C@H](O)[C@]12C`, the Km in series [1] is 8.99 µM; in series [2] it was 39.4 µM.
